Literature values as cited in article PMC7419559 (Scientific Reports, 2020).

By UniProt entry, the sequences of proteins in these tests, tags left out. Where a name states a change or a piece, a line headed by the entry shows the natural chain unless it says otherwise.
UniProt Q9Y5N1: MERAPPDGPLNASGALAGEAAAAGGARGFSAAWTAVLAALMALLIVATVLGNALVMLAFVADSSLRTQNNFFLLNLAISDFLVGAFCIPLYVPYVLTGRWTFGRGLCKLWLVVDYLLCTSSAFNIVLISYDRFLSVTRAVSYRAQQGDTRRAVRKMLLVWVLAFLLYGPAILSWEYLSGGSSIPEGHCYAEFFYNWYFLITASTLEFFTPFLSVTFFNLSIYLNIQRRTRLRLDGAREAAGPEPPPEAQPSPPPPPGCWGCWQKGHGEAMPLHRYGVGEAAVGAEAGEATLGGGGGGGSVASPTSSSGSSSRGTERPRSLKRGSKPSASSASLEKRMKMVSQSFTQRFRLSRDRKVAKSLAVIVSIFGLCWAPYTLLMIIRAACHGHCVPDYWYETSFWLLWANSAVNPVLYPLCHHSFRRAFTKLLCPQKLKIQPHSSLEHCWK

Biological target: T1, human isoform of histamine H3 receptor (hH3R) (Homo sapiens, UniProt Q9Y5N1)
T1 construct: expressed in transfected cells; host or cells: HEK-293T
Conditions: [3H]Nα-methylhistamine displacement; mean [95% CI]; read-out: hH3R affinity Ki [CI95%]; cited from earlier work

O=C(c1ccc(OCCCc2cnc[nH]2)cc1)C1CC1 [Ciproxifan]
Ki: 320 nM
